Sequences of proteins named here, by UniProt entry; tags and fusion partners are left off. Residues count along the entry.
UniProt Q9Y233, 712-1055: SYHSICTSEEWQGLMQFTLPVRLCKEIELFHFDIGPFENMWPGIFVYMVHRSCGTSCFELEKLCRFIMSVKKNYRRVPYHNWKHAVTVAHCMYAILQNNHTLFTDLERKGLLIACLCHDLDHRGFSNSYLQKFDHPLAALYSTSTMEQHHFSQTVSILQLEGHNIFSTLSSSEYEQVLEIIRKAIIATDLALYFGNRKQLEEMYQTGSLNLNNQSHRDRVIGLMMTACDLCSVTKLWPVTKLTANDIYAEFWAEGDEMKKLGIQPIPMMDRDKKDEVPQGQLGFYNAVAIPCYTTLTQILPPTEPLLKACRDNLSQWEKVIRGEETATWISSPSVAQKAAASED

According to publication PMC5962708, “Structure-Based Design, Synthesis, Biological Evaluation, and Molecular Docking of Novel PDE10 Inhibitors With Antioxidant Activities” (Frontiers in Chemistry, 2018):

Molecular target: T1, PDE10A catalytic domain (residues 446-789) (Homo sapiens, UniProt Q9Y233)
T1 construct: coding the catalytic domain (residues 446-789); inferred from the pET15b vector and the Ni-NTA purification) (N); made in house; host or cells: E. coli BL21 (Codonplus, Stratagene)
Test: PDE10A enzymatic assay (3H-cGMP hydrolysis, scintillation counting)
Format: biochemical
Conditions: PDE10 inhibitory assay IC50 (μM), mean of three independent determinations; 3H-cGMP substrate
Description: The recombinant pET15b-PDE10A plasmid coding the catalytic domain (residues 446-789) was subcloned and purified according to the following protocols previously reported (Li et al., [2015]). Then it was transferred into E. coli strain BL21 (Codonplus, Stratagene). The E. coli cells carrying the recombinant plasmid were cultured in an 2XYT medium (containing 100 μg/mL ampicillin and 30 μg/mL chloramphenicol) at 37°C until OD600 = 0.6-0.8. And then, 1 mM isopropyl-β-D-thiogalactopyranoside was added in to induce the PDE10A protein expression at 20°C for 24 h. The nickel nitriloacetic acid (Ni-NTA) column (Qiagen) was used for purifying PDE10A proteins. The concentration of the PDE10 fractions was estimated based on the absorbance at 280 nm (calculated by the ProtParam software).
The enzymatic activities of the catalytic domains of PDE10A were performed using ^3H-cGMP solution in the assay buffer of 50 mM Tris pH = 7.5, 4 mM MgCl2, 1 mM DTT, and ^3H-cGMP giving 20,000–30,000 cpm after the reaction terminated per assay. […] The radioactivity in the supernatant was measured in 2.5 mL Ultima Gold liquid scintillation cocktails (PerkinElmer) by a liquid scintillation counter (PerkinElmer 2910). The IC50 values of test compounds at PDE10A enzymes were measured by repeating of three independent experiments using the nonlinear regression method.

COc1ccc(Cc2nccc3cc(OC)c(OC)cc23)cc1OC [Papaverine, reference compound]
IC50: 0.1 µM
